From PubChem BioAssay AID1259400 (National Center for Advancing Translational Sciences (NCATS), 2018) come the findings set out here.

Sequences of proteins named here, by UniProt entry; tags and fusion partners are left off.
UniProt Q9HBX9, whole entry: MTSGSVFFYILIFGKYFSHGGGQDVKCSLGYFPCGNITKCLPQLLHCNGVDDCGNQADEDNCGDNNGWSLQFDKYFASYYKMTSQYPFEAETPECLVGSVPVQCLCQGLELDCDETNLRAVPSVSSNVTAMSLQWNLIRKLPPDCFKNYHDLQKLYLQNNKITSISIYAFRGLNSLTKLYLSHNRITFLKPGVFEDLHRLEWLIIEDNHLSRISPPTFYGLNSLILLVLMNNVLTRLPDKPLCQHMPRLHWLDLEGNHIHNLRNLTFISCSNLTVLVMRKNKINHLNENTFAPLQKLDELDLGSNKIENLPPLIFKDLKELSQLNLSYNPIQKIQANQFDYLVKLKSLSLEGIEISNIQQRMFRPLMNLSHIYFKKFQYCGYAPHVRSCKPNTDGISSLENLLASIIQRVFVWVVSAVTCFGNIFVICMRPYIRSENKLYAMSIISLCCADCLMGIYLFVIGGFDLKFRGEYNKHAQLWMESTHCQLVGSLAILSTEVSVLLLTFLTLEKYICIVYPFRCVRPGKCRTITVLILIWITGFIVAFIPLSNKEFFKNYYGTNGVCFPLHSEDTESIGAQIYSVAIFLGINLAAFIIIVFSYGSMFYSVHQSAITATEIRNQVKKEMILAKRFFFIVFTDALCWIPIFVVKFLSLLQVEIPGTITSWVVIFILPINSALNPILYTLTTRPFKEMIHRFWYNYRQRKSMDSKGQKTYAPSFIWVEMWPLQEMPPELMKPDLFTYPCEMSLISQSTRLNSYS

The entries are a selection whose mix differs from that of the whole data set. Calls of active or inactive are those of the source.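 How the source made its calls: active means activity change of -60% or lower, but not beyond a set lower limit; inconclusive means change between -60% and -40%, or beyond the set limit; inactive means change above -40%.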
On the % scale 0 is the no-effect control and ±100 the full control effect.

The test concerns the target Relaxin receptor 1 (Homo sapiens) (UniProt Q9HBX9). The test is described as follows: qHTS Assay for Antagonists of the Relaxin Receptor RXFP1. To be noted: HEK293-RXFP1, relaxin-stimulated cAMP HTRF, 30 min; at 57.5 µM; stronger effect = lower value. An excerpt: The relaxin hormone is involved in the variety of biological functions in normal tissues and diseases. The role of relaxin is well-established in female reproduction and parturition, mammary gland and endometrial development, maintenance of myometrial quiescence during pregnancy. Relaxin signaling through its G protein-coupled receptor (GPCR) RXFP1 results in ECM remodeling through regulation of collagen deposition, cell invasiveness, proliferation and overall tissue homeostasis. […] Recombinant human relaxin (rhRlx) is currently being tested in clinical trials as a protective agent in congestive heart failure, in treating severe preeclampsia, and as an anti-fibrotic agent in various organs. […] Upon relaxin binding RXFP1 activation leads to the activation of adenylate cyclase (AC) via G?s. cAMP will activate PKA, which phosphorylates many signaling proteins. Thus, detection of cAMP increase is an easy and reliable indication of relaxin receptor activation. To screen for antagonists of the relaxin receptor, a HEK293T cell line stably transfected with RXFP1 was used. RXFP1 activation by relaxin in presence of various concentrations of tested compounds was assayed by changes in cAMP levels as detected with a time-resolved fluorescence energy transfer (TR-FRET) cAMP detection kit.
For the primary screening, we used HTRF(R) (Homogenous Time-Resolved Fluorescence) cAMP HiRange assay (Cisbio Bioassays, 62AM6PEJ). Presence of cAMP in the cell lysate disrupts binding between the Cryptate-labeled anti-cAMP and d2-labeled cAMP pair, leading to a decrease in TR-FRET signal. The libraries were screened at two doses (57microM and 11microM), followed by a confirmation of the hits at 7-point serial dilution in the range of final concentrations [57microM - 78nM]. Data were normalized to the controls for basal activity (buffer only) and 100% activity (5 nM porcine relaxin). The EC50 values were determined from concentration-response data modeled with the standard Hill equation. NCGC Assay Protocol Summary: HiHEK (Hawaiian HEK293 LGR7 stably transfected with human RXFP1) were grown in the following media: DMEM+10%FBS+Pen/Strep + Geneticin (1mg/ml). For the assay, the cells were seeded in DMEM+Pen/Strep (with no serum & selective antibiotics) at 2,100 cells/ 3microl/well with MultiDrop Combi dispenser (Thermo Scientific, Logan, UT) onto white tissue culture treated solid bottom1536-well plates (Greiner #789173-F) and allowed to attach/recover overnight at 37 degrees C, 5% CO2. Next, 23nl/well of compound solutions in DMSO were transferred into wells with a pintool (Kalypsis, San Diego, CA). […] EC80 (relaxin at 50pM final concentration) was dispensed to the rest of the plate except columns 1&2 which were used as a negative control (EC0, buffer only), 1microl/well also. The cells were stimulated by relaxin in the presence of compounds for 30 minutes at 37 degrees C, 5% CO2. The detection reagents were prepared individually by dilution in Lysis buffer (supplied with the assay kit) just prior to dispensing. 1microl/well of cAMP-d2 and 1microl/well anti-cAMP-Eu3+-Cryptate antibodies were added simultaneously with BioRAPTR FRDtrade mark Workstation (Beckman Coulter). The plates were incubated at ambient temperature for 30 minutes and, then, FRET signal was read on Envision plate reader (PerkinElmer, Waltham, MA), at wavelengths 340nm (excitation), 615nm & 665nm (emission of donor and acceptor channels respectively).
(In general: qHTS replaces the single test concentration by a dilution series.)
On to `CCOP(C)(=S)SCC(=O)NC(C)(CC)C(=O)O` (configuration not stated), for which the activity change, negative = inhibition is inactive: -11.2%.

As for `CP(=O)(Nc1ccc(SC(F)(F)F)cc1)Oc1ccc(F)cc1` (configuration not stated), the activity change, negative = inhibition was inactive: -6.62%.

For the compound `C/C1=C2N=C(/C=C3N=C(/C(C)=C4\[N-][C@@](C)([C@@H]5N=C1[C@](C)(CCC(=O)NC[C@@H](C)OP(=O)([O-])O[C@H]1[C@@H](O)[C@@H](n6cnc7cc(C)c(C)cc76)O[C@@H]1CO)[C@H]5CC(N)=O)[C@@](C)(CC(N)=O)[C@@H]4CCC(N)=O)[C@@](C)(CC(N)=O)[C@@H]\3CCC(N)=O)C(C)(C)[C@@H]/2CCC(N)=O.[C-]#N.[Co+3]`, the activity change, negative = inhibition was inactive: 12.8%.

`Cc1ccccc1NP(C)(=O)Nc1ccccc1C`: the activity change, negative = inhibition was inactive: -13.7%.

`CP(=O)(Nc1ccc2c(c1)OCCO2)Oc1ccccc1` (configuration not stated): the activity change, negative = inhibition was inactive: -3.89%.

As for `CN(C)CCOC(=O)C(O)(c1ccccc1)C1CCCCC1` (configuration not stated), the activity change, negative = inhibition was inactive: -15.7%.

For `COc1ccc(NP(C)(=O)Oc2ccccc2OC)cc1` (configuration not stated), the activity change, negative = inhibition is inactive: -7.16%.

As to `COc1ccc(OP(C)(=O)Nc2cccc(Br)c2)cc1` (configuration not stated), the activity change, negative = inhibition is inactive: 0.0664%.

Turning to `Cc1c(C(c2ccc3c(c2)OCO3)c2c(C)n(C)n(-c3ccccc3)c2=O)c(=O)n(-c2ccccc2)n1C.O=[N+]([O-])c1cc([N+](=O)[O-])c(O)c([N+](=O)[O-])c1`, the activity change, negative = inhibition is inactive: -0.866%.

Consider `O=[N+]([O-])c1ccc(OP2(=O)COCCO2)cc1` (configuration not stated), for which the activity change, negative = inhibition is inactive: -14%.

Take `Cc1cc(-c2cccc3ccccc23)c(C)cn1.O=[N+]([O-])c1cc([N+](=O)[O-])c(O)c([N+](=O)[O-])c1`: the activity change, negative = inhibition was inactive: -36.9%.

Turning to `CCOC(=O)c1ccc(NP(C)(=O)Oc2ccc(F)cc2)cc1` (configuration not stated), the activity change, negative = inhibition is inactive: -10.3%.

For the compound `COc1ccc(OP(C)(=O)Nc2ccc(SC(F)(F)F)cc2)cc1` (configuration not stated), the activity change, negative = inhibition is inactive: -33.9%.

With `Cc1cccc([N+](=O)[O-])c1[N+](=O)[O-]`, the activity change, negative = inhibition was inactive: 21.3%.

For the compound `CP(=O)(Nc1ccccc1)Oc1ccc(F)cc1` (configuration not stated), the activity change, negative = inhibition was inactive: -20.7%.

For the compound `Cc1c([N+](=O)[O-])cc([N+](=O)[O-])c(Br)c1[N+](=O)[O-]`, the activity change, negative = inhibition is inactive: -17.1%.

With `CCN(CC)CCCOC(=O)C(O)(c1ccccc1)C1CCCCC1` (configuration not stated), the activity change, negative = inhibition is inactive: -8.14%.

Regarding `CP(=O)(Nc1ccccc1F)Oc1ccccc1` (configuration not stated), the activity change, negative = inhibition is inactive: -24.2%.

In the case of `CCOP(=O)(CC)Oc1ccc([N+](=O)[O-])cc1` (configuration not stated), the activity change, negative = inhibition is inactive: 4.75%.

For `O=C(OCCN1CCN(CCOCc2ccccc2)CC1)C(O)(c1ccccc1)c1ccccc1`, the activity change, negative = inhibition was inactive: -10.6%.

Turning to `COc1ccc(OP(C)(=O)Nc2ccccn2)cc1` (configuration not stated), the activity change, negative = inhibition is inactive: -12.5%.

For `CN(C)CCOC(=O)C(O)(c1ccccc1)C1CCCC1` (configuration not stated), the activity change, negative = inhibition is inactive: 3.84%.

As to `COc1ccccc1OP(C)(=O)Nc1ccc(Br)cc1` (configuration not stated), the activity change, negative = inhibition was inactive: -2.66%.

In the case of `CP(=O)(Nc1ccccn1)Oc1ccccc1` (configuration not stated), the activity change, negative = inhibition was inactive: 9.7%.

Regarding `COc1ccccc1OP(C)(=O)Nc1ccc(C)cc1C` (configuration not stated), the activity change, negative = inhibition was inactive: 11%.

For `CCc1ccc(OP(C)(=O)O)cc1`, the activity change, negative = inhibition is inactive: 2.48%.

As to `Cc1c(NP(C)(=O)Oc2ccc(C(C)C)cc2)c(=O)n(-c2ccccc2)n1C` (configuration not stated), the activity change, negative = inhibition was inactive: -2.49%.

In the case of `O=[N+]([O-])c1cc([N+](=O)[O-])c(Nc2ccccn2)c([N+](=O)[O-])c1`, the activity change, negative = inhibition was inactive: -2.9%.

Turning to `COc1ccccc1OP(C)(=O)Nc1ccc(C)c(C)c1` (configuration not stated), the activity change, negative = inhibition is inactive: -19.4%.

`COc1ccc(OP(C)(=O)Nc2ccccc2Br)cc1` (configuration not stated): the activity change, negative = inhibition was inactive: -6.24%.

As to `Cc1cc(C)cc(OP(C)(=O)Nc2cccc(C(F)(F)F)c2)c1` (configuration not stated), the activity change, negative = inhibition is inactive: -29.6%.

As to `CCCCCCCCCCCCCCCC1C[N+](C)(C)CCOP(C)(=O)O1` (configuration not stated), the activity change, negative = inhibition was inactive: -15.4%.

Take `CP(=O)(Nc1ccc(Cl)cc1Cl)Oc1ccccc1` (configuration not stated): the activity change, negative = inhibition is inactive: -15.6%.

Take `CP(=O)(OCCOc1ccccc1)OCCOc1ccccc1`: the activity change, negative = inhibition is inactive: 6.96%.

Turning to `CP(=O)(OC12CC3CC(CC(C3)C1)C2)OC12CC3CC(CC(C3)C1)C2`, the activity change, negative = inhibition is inactive: 16.4%.

With `Nc1ccc2c(ccc3cccnc32)n1.O=[N+]([O-])c1cc([N+](=O)[O-])c(O)c([N+](=O)[O-])c1`, the activity change, negative = inhibition was inactive: 7.73%.

With `COc1ccccc1OP(C)(=O)Nc1c(C)n(C)n(-c2ccccc2)c1=O` (configuration not stated), the activity change, negative = inhibition was inactive: 14.6%.

Regarding `O=C(OCCCN1CCCC1)C(O)(c1ccccc1)C1CCCCC1` (configuration not stated), the activity change, negative = inhibition is inactive: -2.77%.

`OCCSCCO`: the activity change, negative = inhibition is inactive: -7.83%.

For `CP(=O)(Oc1ccccc1)N1CCOC1=O` (configuration not stated), the activity change, negative = inhibition is inactive: -3.24%.

Turning to `CCc1ccc(OP(C)(=O)Nc2cccnc2)cc1` (configuration not stated), the activity change, negative = inhibition was inactive: -9.66%.

Regarding `CCN(CC)CC(O)COC(=O)C(O)(c1ccccc1)C1CCCCC1` (configuration not stated), the activity change, negative = inhibition was inactive: -6.69%.
